# From PubChem BioAssay
# A selection: hits, their analogues and other compounds. The true share with any hit is near 0.94%.
# UUG fidelity: modulators of start codon recognition fidelity in yeast; AID 602363; activity score, % at 18.7 µM; S. cerevisiae UUG-firefly luciferase reporter, luminescence/redox ratio; 0.13% of 350,000 active;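 active = replicate mean at a twofold rise or more, about +100% in these data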;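 note: firefly luciferase made from a UUG start codon reports start codon fidelity; reporter light over untreated wells divided by growth signal over untreated wells; some hits fall short of that in this replicate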
# PKA-R1A act: activators of PKA-R1A holoenzyme, primary screen, biochemical, fluorescence polarization, Cy5-IP20, bovine R1A, mouse PKAc; PKA-R1A dissociation; scaled: DMSO 0%, 113 µM cGMP 100%; activation, % at 11.4 µM; 340,000 tested, 0.083% active; AID 504707, 2011;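 active = percent activation above the mean of all tested compounds plus 3 SD, cut at about 19% in these data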;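 note: higher means more PKAc released from R1A so a rise in polarization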
# PKA-R2B activ: activators of PKA-R2B holoenzyme, primary screen, biochemical, fluorescence polarization, Cy5-IP20, human | cAMP-dependent protein kinase catalytic subunit beta (Homo sapiens) + cAMP-dependent … | PKA-R2B holoenzyme dissociation; R2B truncated from residue 108, S112A mutant; 0% DMSO only, 100% 113 µM cGMP | activation, % at 11.4 µM | 340,000 tested, 0.079% active | AID 504700, 2011;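 active = activation above a cutoff set at the mean over all compounds plus 3 SD, cut at about 18% in these data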;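 note: higher means more holoenzyme dissociation and a rise in polarization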
# pCIP destab: p/CIP-EGFP fusion destabilizers, primary screen, fluorescence, F442A cells | Q05BA5 | 16 h | decrease of EGFP signal, % at 10 µM | 290,000 tested, 0.01% active | AID 1984, 2009;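 active = EGFP signal decrease of at least 30% at 10 µM or well 3 SD below plate mean, unless failing retest; inactive = the rest, including hits failing retest or dose response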
# ABCB6 inh 2: ABCB6 transporter inhibitors, primary screen, K562-ABCB6 cells, flow cytometry, MLPCN library; K562-ABCB6 porphyrin accumulation, 1 h; stronger effect = lower value; ATP-binding cassette sub-family B member 6 (Homo sapiens), Q9NP58; 360,000 tested, 0.19% active; fluorescence ratio to DMSO, % at 10 µM;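 active = fluorescence ratio to DMSO below 75%, the collection mean minus 3 SD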;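 note: signal is porphyrin accumulated inside mitochondria; 100% equals median channel fluorescence of DMSO control wells; lower ratio means ABCB6 inhibition with less porphyrin fluorescence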
# Granule exo inh: LAMP-1 surface exposure blockers, TALL-104 cells – cell-based, flow cytometry, MLPCN library, primary screen; TALL-104 LAMP-1 surface exposure; cells stimulated with thapsigargin and PMA; inhibition, % at 10 µM; 360,000 tested, 0.66% active;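 active = inhibition above about 55%, limit read from the data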
# * hit, by the source's call; i = inactive; . = no result.
# Each structure is followed by: UUG fidelity | PKA-R1A act | PKA-R2B activ | pCIP destab | ABCB6 inh 2 | Granule exo inh
1: C[C@@H]1CN([C@H](C)CO)C(=O)c2cc(NS(=O)(=O)c3cn(C)cn3)ccc2O[C@@H]1CN(C)C(=O)Nc1ccc2c(c1)OCO2
 : -2.7 | . | . | . | . | .
2: Cc1nn(C)c(Oc2cccc(Cl)c2)c1C=O
 : -15.5 | -6.2 | 4.2 | -10.0 | 74.0* | 2.6
3: Cc1ccc2nc(/C(C#N)=C\c3ccc([N+](=O)[O-])o3)[nH]c2c1
 : -18.9 | -4.2 | 2.0 | -287.4 | 893.0 | 62.1*
4: COCC(=O)Nc1ccc2c(c1)[C@H]1C[C@@H](CC(=O)N3CCc4ccccc4C3)O[C@@H](CO)[C@H]1O2
 : 3.5 | . | . | . | . | .
5: CCOC(=O)c1c(NC(=O)c2cccs2)sc2c1CC(C)(C)OC2
 : -9.1 | -6.2 | -5.8 | -4.9 | 98.0 | 66.7*
6: COCCCN(C(C)=O)c1nc(-c2ccc(OC)cc2)cs1
 : -9.8 | -5.2 | 4.0 | 4.3 | 72.0* | 2.4
7: CCN(CC)CCCN(C(=O)c1ccc(OC)cc1)c1nc(-c2ccc(OC)cc2)cs1
 : 10.0 | 1.7 | 8.3 | 5.3 | 98.0 | 51.4
8: O=C(OCn1ncc(Br)c(Br)c1=O)c1ccccc1Cl
 : -15.6 | -12.5 | 3.3 | 0.7 | 46.0* | 97.5*
9: O=C(OCn1ncc(Br)c(Br)c1=O)c1ccc(F)cc1
 : -10.2 | 5.4 | -12.8 | -12.8 | 83.0 | 63.8*
10: CO[C@@H]1CN(C)C(=O)c2ccc(NC(=O)C3CC3)cc2OC[C@H](C)N(CCc2ccccc2)C[C@@H]1C
 : -4.0 | . | . | . | . | .
11: CNC[C@@H]1Oc2c(NS(=O)(=O)c3ccc(C)cc3)cccc2C(=O)N([C@H](C)CO)C[C@@H]1C
 : -7.8 | . | . | . | . | .
12: CC(C)C[C@@H](CN1CCCC1CN1C(=S)NC[C@@H]1Cc1ccc(O)cc1)N1C[C@H](Cc2ccc(O)cc2)N(CC2CCCCC2)C1=S (stereo partly drawn)
 : -20.0 | -2.0 | -7.1 | . | 100.0 | 57.0*
13: C[C@H]1CN([C@@H](C)CO)C(=O)c2cc(-c3ccc(F)cc3)cnc2O[C@H]1CN(C)Cc1ccc(F)cc1
 : -12.1 | . | . | . | . | .
14: C[C@H]1CN([C@@H](C)CO)C(=O)c2cc(C#CC3CCCC3)cnc2O[C@H]1CN(C)Cc1ccncc1
 : -6.9 | . | . | . | . | .
15: COCCNC(=S)N/N=C(\C)c1cc2ccccc2o1
 : -43.1 | -0.5 | -4.4 | 5.6 | 70.0* | -0.2
16: CC(=NCCc1ccccc1)C1=C(O)CSC1=O
 : . | 2.9 | -1.5 | 4.1 | 74.0* | -3.5
17: COc1cc(/C=C/C(=O)C2C(=O)C=C(C)OC2=O)cc(OC)c1O (stereo not drawn)
 : . | -0.5 | 1.1 | -21.3 | 99.0 | -6.0
18: COc1ccc(/C=C/C(=O)C2C(=O)C=C(C)OC2=O)cc1O (stereo not drawn)
 : -6.0 | -23.1 | -7.1 | -3.4 | 68.0* | 1.7
19: O=C(C[C@H]1CC[C@H](NC(=O)Nc2ccc(F)cc2)[C@@H](CO)O1)NCc1cccc(F)c1
 : -12.9 | . | . | . | . | .
20: CN(C)CCCN(C(=O)c1cc2cc([N+](=O)[O-])ccc2s1)c1nc2cc3c(cc2s1)OCCO3
 : -10.9 | -6.1 | -3.2 | . | 95.0 | 75.8*
21: C[C@H]1CN([C@@H](C)CO)C(=O)c2cc(NC(=O)Cn3cnnn3)ccc2O[C@H]1CN(C)Cc1ccncc1
 : -20.4 | . | . | . | . | .
22: C/C(=N\NC(N)=S)C1=CCC2C3CC[C@H]4CC(O)CC[C@]4(C)C3CC[C@]12C (stereo partly drawn)
 : -27.0 | -9.8 | -7.2 | -15.0 | 90.0 | 55.6*
23: N#C[C@@H]1[C@@H](c2ccc(-c3ccncc3)cc2)[C@@H](CO)N1C(=O)C1CCCC1
 : 0.5 | . | . | . | . | .
24: O=C(Nc1cccc2[nH]ncc12)c1ccc(F)cc1
 : -17.0 | 18.7* | -3.1 | -7.4 | 98.0 | -3.4
25: Cc1ccc(S(=O)(=O)N[C@H]2CC[C@H](CCNC(=O)C3CCCCC3)O[C@@H]2CO)cc1
 : -8.6 | . | . | . | . | .
26: O=C1C(=O)N(CCCc2ccccc2)c2ccccc21
 : 2.9 | -6.5 | 10.7 | -1.7 | 99.0 | 75.7*
27: CN(C)c1nc(=NCc2cccs2)ss1
 : . | 3.3 | 2.8 | . | 89.0 | 65.4*
28: COc1cccc(C(=O)C(C#N)=C(SC)SC)c1
 : 0.9 | 10.4 | 3.0 | -3.0 | 99.0 | 70.2*
29: O=C(O)c1ccc(C(=O)C(=O)c2ccccc2)cc1
 : 1.1 | -0.9 | -2.6 | -3.9 | 103.0 | 0.8
30: CSC(SC)=C(C#N)C(=O)c1ccccc1
 : -5.4 | 4.0 | -6.5 | -3.7 | 100.0 | 56.1*

# Entries from the list above that have a thiophene ring, fused or not:
# Each structure is followed by: UUG fidelity | PKA-R1A act | PKA-R2B activ | pCIP destab | ABCB6 inh 2 | Granule exo inh
5: CCOC(=O)c1c(NC(=O)c2cccs2)sc2c1CC(C)(C)OC2
 : -9.1 | -6.2 | -5.8 | -4.9 | 98.0 | 66.7*
20: CN(C)CCCN(C(=O)c1cc2cc([N+](=O)[O-])ccc2s1)c1nc2cc3c(cc2s1)OCCO3
 : -10.9 | -6.1 | -3.2 | . | 95.0 | 75.8*
27: CN(C)c1nc(=NCc2cccs2)ss1
 : . | 3.3 | 2.8 | . | 89.0 | 65.4*

# Other records:
[31] C[C@H]1CN([C@@H](C)CO)C(=O)c2cc(C#CC3(O)CCCC3)cnc2O[C@@H]1CN(C)C(=O)C1CCC1
[32] CCN=C1S/C(=C/c2ccc(-c3ccc(Cl)cc3C(=O)O)o2)C(=O)N1CC
[33] CCN=C1S/C(=C\c2ccc(-c3cccc(C(=O)O)c3)o2)C(=O)N1CC
[34] CCN1/C(=C/C(C)=C/c2sc3ccccc3[n+]2CC)Sc2ccccc21
[35] C[C@H]1CN([C@@H](C)CO)C(=O)c2cccc(NS(=O)(=O)c3ccc(Cl)cc3)c2O[C@H]1CN(C)Cc1ccc(C(F)(F)F)cc1
[36] CCOc1ccc(C2NC(=O)C(C#N)=C(S)N2c2cccc(C)c2)cc1OC (stereo not drawn)
[37] CCOCCCNC(=O)/C(C#N)=C/c1ccc(Cl)c([N+](=O)[O-])c1
[38] C[C@@H]1CN([C@H](C)CO)C(=O)c2cc(NC(=O)Nc3ccc(F)cc3)ccc2O[C@@H]1CN(C)S(=O)(=O)c1ccccc1
assay / compound,31,32,33,34,35,36,37,38
UUG fidelity,-2.9,.,.,65.9,-3.6,.,-4.0,-12.0
PKA-R1A act,.,-18.2,1.2,2.0,.,-7.9,5.3,.
PKA-R2B activ,.,-11.5,-4.4,-2.8,.,-16.0,0.7,.
pCIP destab,.,-11.9,-17.9,-5.4,.,-5.9,13.7,.
ABCB6 inh 2,.,71.0*,96.0,i,.,100.0,98.0,.
Granule exo inh,.,-6.7,2.0,82.2*,.,69.3*,66.5*,.

# Looked up above:
# For Granule exo inh, cpd 34 has 82.2*
# For PKA-R2B activ, cpd 32 has -11.5
# For UUG fidelity, cpd 35 has -3.6
# For UUG fidelity, cpd 31 has -2.9

# Carrying on.
[39] O=C1N[C@@H](Cc2ccccc2)COC(=O)[C@@H](Cc2ccc(F)cc2)CC/C=C/C[C@H]1CC(=O)N(CCO)Cc1ccccc1
[40] O=C1N[C@@H](Cc2ccccc2)COC(=O)[C@H](Cc2ccc(F)cc2)CC/C=C/C[C@@H]1CC(=O)N(CCO)Cc1ccccc1
[41] Cc1noc(C)c1S(=O)(=O)Nc1ccc2c(c1)CC(=O)N([C@H](C)CO)C[C@@H](C)[C@H](CN(C)C(=O)Nc1ccc(F)cc1)O2
[42] Cc1ccc(-n2c(-c3ccc(Br)cc3)c[n+]3c2CCc2ccc4cccnc4c2-3)cc1
[43] COc1ccc(-n2c(-c3ccc(Cl)cc3)c[n+]3c2CCc2ccccc2-3)cc1
assay / compound,39,40,41,42,43
UUG fidelity,-8.4,-11.3,-0.8,-11.3,.
PKA-R1A act,7.0,3.1,.,-2.5,-7.4
PKA-R2B activ,3.3,5.3,.,0.9,-3.5
pCIP destab,.,.,.,-15.0,-15.7
ABCB6 inh 2,91.0,99.0,.,87.0,92.0
Granule exo inh,-21.1,58.0*,.,72.5*,1.2
